# Source: patent publication US12564583B2, “Small molecules against cereblon to enhance effector T cell function” (H. LEE MOFFITT CANCER CENTER AND RESEARCH INSTITUTE, INC., priority 2016, dated 2026)
# System: human T cells
# Experiment: Viability and proliferation of activated T cells
# Assay type: cell-based
smiles,measurement,value
"Nc1cccc2c1CN(C1CCC(=O)NC1=O)C2=O (stereo not shown) [Lenalidomide, lenalidomide]",proliferation,increase proliferation
